Test results taken from ChEMBL document CHEMBL2021911 (Bioorg Med Chem Lett, 2012).

Chains of the proteins cited; added tags and fusions are not shown. Lines headed by an entry give the natural chain unless they say otherwise; changes in a name come on top.
UniProt P11229: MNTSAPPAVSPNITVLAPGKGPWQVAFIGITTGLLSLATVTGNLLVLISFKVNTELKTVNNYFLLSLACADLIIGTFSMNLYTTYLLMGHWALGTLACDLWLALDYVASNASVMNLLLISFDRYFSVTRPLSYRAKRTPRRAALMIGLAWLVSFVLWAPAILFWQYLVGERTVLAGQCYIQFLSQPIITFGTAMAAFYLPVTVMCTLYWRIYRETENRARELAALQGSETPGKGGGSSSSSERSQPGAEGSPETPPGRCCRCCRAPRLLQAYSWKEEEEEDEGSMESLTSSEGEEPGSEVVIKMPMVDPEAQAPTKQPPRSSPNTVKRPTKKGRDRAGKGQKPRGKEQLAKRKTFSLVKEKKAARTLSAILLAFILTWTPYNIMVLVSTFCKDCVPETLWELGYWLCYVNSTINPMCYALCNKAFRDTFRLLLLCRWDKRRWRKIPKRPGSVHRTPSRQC

biological target: Muscarinic acetylcholine receptor M1 (Homo sapiens, UniProt P11229); assay: Agonist activity at human muscarinic M1 receptor at 30 uM relative to acetylcholine; format: functional

SMILES	Activity
CCOC(=O)N1[C@@H]2CC[C@H]1C[C@H](NCCNC(=O)c1ccc[nH]1)C2	< 5%
CN(C)C(=O)N1[C@@H]2CC[C@H]1C[C@H](NCCNC(=O)c1ccccc1)C2	< 5%
CS(=O)(=O)N1[C@@H]2CC[C@H]1C[C@H](NCCNC(=O)c1ccccc1)C2	< 5%
CCOC(=O)N1[C@@H]2CC[C@H]1C[C@H](NCCNS(=O)(=O)c1cccc(OC)c1)C2	< 5%
CCCC(=O)N1[C@@H]2CC[C@H]1C[C@H](NCCNC(=O)c1ccccc1)C2	< 5%
CCOC(=O)N1[C@@H]2CC[C@H]1C[C@H](NCCNC(=O)NC1CC1)C2	< 5%
CCC(=O)N1[C@@H]2CC[C@H]1C[C@H](NCCNC(=O)c1ccccc1)C2	< 5%
CCOC(=O)N1[C@@H]2CC[C@H]1C[C@H](NCCNC(=O)c1ccccc1C(F)(F)F)C2	< 5%
CCS(=O)(=O)N1[C@@H]2CC[C@H]1C[C@H](NCCNC(=O)c1ccccc1)C2	< 5%
O=C(NCCN[C@@H]1C[C@H]2CC[C@@H](C1)N2C(=O)Oc1ccccc1)c1ccccc1	< 5%
